# Measured values published in PubChem BioAssay (NCI).
#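 1) Cells in 96-well plates. 2) Compound, 48 h, 5 concentrations. 3) Linear interpolation between surrounding doses. 4) Unreached endpoint = highest concentration. GI50 is the concentration that inhibits growth by half. TGI is the concentration that stops growth completely.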
# Assays:
# Experiment in all cases: DTP human tumour cell line panel, 48 h
# CAKI-1 renal = tested on: CAKI-1 renal
# SR leukemia = tested on: SR leukemia
# A549 NSCLC = tested on: A549 NSCLC
# TK-10 renal = tested on: TK-10 renal
# LOX IMVI melanoma = tested on: LOX IMVI melanoma
# UACC-257 melanoma = tested on: UACC-257 melanoma
# NCI-H522 lung = tested on: NCI-H522 lung
# MCF7 breast = tested on: MCF7 breast
# NCI-H23 lung = tested on: NCI-H23 lung
# ACHN renal = tested on: ACHN renal
# NCI-H226 lung = tested on: NCI-H226 lung
# HT29 colon = tested on: HT29 colon
# HOP-62 NSCLC = tested on: HOP-62 NSCLC
# SK-MEL-5 melanoma = tested on: SK-MEL-5 melanoma
# MOLT-4 leukemia = tested on: MOLT-4 leukemia
# NCI-H460 lung = tested on: NCI-H460 lung
# UACC-62 melanoma = tested on: UACC-62 melanoma
# KM12 colon = tested on: KM12 colon
# SNB-19 CNS = tested on: SNB-19 CNS
# CCRF-CEM leukemia = tested on: CCRF-CEM leukemia
# HL-60(TB) leukemia = tested on: HL-60(TB) leukemia
# M14 melanoma = tested on: M14 melanoma
# T-47D breast = tested on: T-47D breast
# HCC-2998 colon = tested on: HCC-2998 colon
# RPMI-8226 leukemia = tested on: RPMI-8226 leukemia
# K-562 leukemia = tested on: K-562 leukemia
# DU-145 prostate = tested on: DU-145 prostate
# SF-539 CNS = tested on: SF-539 CNS
# SK-OV-3 ovarian = tested on: SK-OV-3 ovarian
# MDA-MB-231 breast = tested on: MDA-MB-231 breast
# MALME-3M melanoma = tested on: MALME-3M melanoma
# HCT-116 colon = tested on: HCT-116 colon
# SF-268 CNS = tested on: SF-268 CNS
# OVCAR-4 ovarian = tested on: OVCAR-4 ovarian
# UO-31 renal = tested on: UO-31 renal
# SN12C renal = tested on: SN12C renal
# HOP-92 NSCLC = tested on: HOP-92 NSCLC
# IGROV1 ovarian = tested on: IGROV1 ovarian
# EKVX NSCLC = tested on: EKVX NSCLC
# HS 578T breast = tested on: HS 578T breast
# SF-295 CNS = tested on: SF-295 CNS
# U251 CNS = tested on: U251 CNS
# OVCAR-3 ovarian = tested on: OVCAR-3 ovarian
# PC-3 prostate = tested on: PC-3 prostate
# SW-620 colon = tested on: SW-620 colon
# SK-MEL-2 melanoma = tested on: SK-MEL-2 melanoma
# SNB-75 CNS = tested on: SNB-75 CNS
# COLO 205 colon = tested on: COLO 205 colon
# A498 renal = tested on: A498 renal
# MDA-N = tested on: MDA-N
# OVCAR-5 ovarian = tested on: OVCAR-5 ovarian
# HCT-15 colon = tested on: HCT-15 colon
# NCI/ADR-RES ovarian = tested on: NCI/ADR-RES ovarian
# RXF 393 renal = tested on: RXF 393 renal
# SK-MEL-28 melanoma = tested on: SK-MEL-28 melanoma
# OVCAR-8 ovarian = tested on: OVCAR-8 ovarian
# NCI-H322M lung = tested on: NCI-H322M lung
# 786-0 renal = tested on: 786-0 renal
# MDA-MB-435 = tested on: MDA-MB-435
structure (smiles),measurement,setting,value
NNc1nc2nonc2nc1NN,GI50,CAKI-1 renal,74.6 µM
same,TGI,CAKI-1 renal,> 100 µM
same,GI50,SR leukemia,36.6 µM
same,TGI,SR leukemia,> 100 µM
same,GI50,A549 NSCLC,42.8 µM
same,TGI,A549 NSCLC,> 100 µM
same,GI50,TK-10 renal,> 100 µM
same,TGI,TK-10 renal,> 100 µM
same,GI50,LOX IMVI melanoma,31.5 µM
same,TGI,LOX IMVI melanoma,94 µM
same,GI50,UACC-257 melanoma,37.2 µM
same,TGI,UACC-257 melanoma,> 100 µM
same,GI50,NCI-H522 lung,10.5 µM
same,TGI,NCI-H522 lung,27.2 µM
same,GI50,MCF7 breast,14.4 µM
same,TGI,MCF7 breast,36.7 µM
same,GI50,NCI-H23 lung,44.4 µM
same,TGI,NCI-H23 lung,72.7 µM
same,GI50,ACHN renal,43.5 µM
same,TGI,ACHN renal,> 100 µM
same,GI50,NCI-H226 lung,31.8 µM
same,TGI,NCI-H226 lung,94.8 µM
same,GI50,HT29 colon,27.8 µM
same,TGI,HT29 colon,62.6 µM
same,GI50,HOP-62 NSCLC,78 µM
same,TGI,HOP-62 NSCLC,> 100 µM
same,GI50,SK-MEL-5 melanoma,41.7 µM
same,TGI,SK-MEL-5 melanoma,72.3 µM
same,GI50,MOLT-4 leukemia,40.1 µM
same,TGI,MOLT-4 leukemia,> 100 µM
same,GI50,NCI-H460 lung,33.5 µM
same,TGI,NCI-H460 lung,71.2 µM
same,GI50,UACC-62 melanoma,54.9 µM
same,TGI,UACC-62 melanoma,> 100 µM
same,GI50,KM12 colon,46.2 µM
same,TGI,KM12 colon,> 100 µM
same,GI50,SNB-19 CNS,61.4 µM
same,TGI,SNB-19 CNS,> 100 µM
same,GI50,CCRF-CEM leukemia,42.7 µM
same,TGI,CCRF-CEM leukemia,> 100 µM
same,GI50,HL-60(TB) leukemia,51.7 µM
same,TGI,HL-60(TB) leukemia,> 100 µM
same,GI50,M14 melanoma,27.9 µM
same,TGI,M14 melanoma,> 100 µM
same,GI50,T-47D breast,20.2 µM
same,TGI,T-47D breast,60.5 µM
same,GI50,HCC-2998 colon,52.8 µM
same,TGI,HCC-2998 colon,> 100 µM
same,GI50,RPMI-8226 leukemia,43.2 µM
same,TGI,RPMI-8226 leukemia,97 µM
same,GI50,K-562 leukemia,33.5 µM
same,TGI,K-562 leukemia,> 100 µM
same,GI50,DU-145 prostate,32.7 µM
same,TGI,DU-145 prostate,> 100 µM
same,GI50,SF-539 CNS,64.1 µM
same,TGI,SF-539 CNS,> 100 µM
same,GI50,SK-OV-3 ovarian,> 100 µM
same,TGI,SK-OV-3 ovarian,> 100 µM
same,GI50,MDA-MB-231 breast,40.8 µM
same,TGI,MDA-MB-231 breast,80.7 µM
same,GI50,MALME-3M melanoma,25.8 µM
same,TGI,MALME-3M melanoma,81.9 µM
same,GI50,HCT-116 colon,28.8 µM
same,TGI,HCT-116 colon,> 100 µM
same,GI50,SF-268 CNS,55.2 µM
same,TGI,SF-268 CNS,> 100 µM
same,GI50,OVCAR-4 ovarian,22.6 µM
same,TGI,OVCAR-4 ovarian,45.4 µM
same,GI50,UO-31 renal,40.4 µM
same,TGI,UO-31 renal,> 100 µM
same,GI50,SN12C renal,40.7 µM
same,TGI,SN12C renal,86.3 µM
same,GI50,HOP-92 NSCLC,54.9 µM
same,TGI,HOP-92 NSCLC,> 100 µM
same,GI50,IGROV1 ovarian,21.8 µM
same,TGI,IGROV1 ovarian,52.2 µM
same,GI50,EKVX NSCLC,20.9 µM
same,TGI,EKVX NSCLC,58.9 µM
same,GI50,HS 578T breast,73.4 µM
same,TGI,HS 578T breast,98.6 µM
same,GI50,SF-295 CNS,> 100 µM
same,TGI,SF-295 CNS,> 100 µM
same,GI50,U251 CNS,40.6 µM
same,TGI,U251 CNS,> 100 µM
same,GI50,OVCAR-3 ovarian,5.13 µM
same,TGI,OVCAR-3 ovarian,58.5 µM
same,GI50,PC-3 prostate,32.1 µM
same,TGI,PC-3 prostate,> 100 µM
same,GI50,SW-620 colon,39.3 µM
same,TGI,SW-620 colon,> 100 µM
same,GI50,SK-MEL-2 melanoma,75 µM
same,TGI,SK-MEL-2 melanoma,> 100 µM
same,GI50,SNB-75 CNS,> 100 µM
same,TGI,SNB-75 CNS,> 100 µM
same,GI50,COLO 205 colon,23.4 µM
same,TGI,COLO 205 colon,64.8 µM
same,GI50,A498 renal,> 100 µM
same,TGI,A498 renal,> 100 µM
same,GI50,MDA-N,39 µM
same,TGI,MDA-N,> 100 µM
same,GI50,OVCAR-5 ovarian,42.2 µM
same,TGI,OVCAR-5 ovarian,> 100 µM
same,GI50,HCT-15 colon,33.3 µM
same,TGI,HCT-15 colon,78.9 µM
same,GI50,NCI/ADR-RES ovarian,23 µM
same,TGI,NCI/ADR-RES ovarian,69.8 µM
same,GI50,RXF 393 renal,> 100 µM
same,TGI,RXF 393 renal,> 100 µM
same,GI50,SK-MEL-28 melanoma,> 100 µM
same,TGI,SK-MEL-28 melanoma,> 100 µM
same,GI50,OVCAR-8 ovarian,22.4 µM
same,TGI,OVCAR-8 ovarian,49.2 µM
same,GI50,NCI-H322M lung,38.3 µM
same,TGI,NCI-H322M lung,> 100 µM
same,GI50,786-0 renal,23.9 µM
same,TGI,786-0 renal,72.2 µM
same,GI50,MDA-MB-435,43.4 µM
same,TGI,MDA-MB-435,> 100 µM
